## Permeability data for macrocyclic peptides

Collected by the curators of CycPeptMPDB (Li et al. 2023) from Townsend et al. 2020, doi:10.26434/chemrxiv.13335941.v1.

PAMPA is the parallel artificial membrane permeability assay, which has no cells and reads passive diffusion.
P is given in units of 10^-6 cm/s (from log10 values with two decimals); larger means faster passage.

compound | PAMPA (10^-6 cm/s)
CC(C)C[C@@H]1NC(=O)[C@H](C)NC(=O)[C@H]2CCCN2C(=O)[C@H](Cc2ccccc2)NC(=O)[C@H](CC(C)C)NC(=O)[C@@H]2CCCN2C(=O)C[C@H](Cc2ccccc2)NC1=O | 1.1
CC(C)C[C@@H]1C(=O)N(C)[C@H](CC(C)C)C(=O)N2CCC[C@@H]2C(=O)N(C)[C@H](CC(C)C)C(=O)N[C@@H](Cc2ccccc2)C(=O)N2CCC[C@@H]2C(=O)N(C)[C@H](C)C(=O)N1C | 1.9
CC(C)C[C@H]1C(=O)N(C)[C@@H](CC(C)C)C(=O)N2CCC[C@H]2C(=O)N(C)[C@@H](CC(C)C)C(=O)N[C@@H](Cc2ccccc2)C(=O)N2CCC[C@@H]2C(=O)N[C@@H](Cc2ccccc2)CC(=O)N1C | 5.2
CC(C)C[C@@H]1NC(=O)[C@H](C)NC(=O)[C@H]2CCCN2C(=O)[C@H](Cc2ccccc2)NC(=O)[C@H](CC(C)C)N(C)C(=O)[C@H]2CCCN2C(=O)C[C@H](Cc2ccccc2)NC1=O | 1.1
CCCN1CC(=O)N[C@H](CC(C)C)C(=O)N[C@@H](CC(C)C)C(=O)N2CCC[C@@H]2C(=O)N[C@@H](CC(C)C)C(=O)N[C@@H](Cc2ccccc2)C(=O)N2CCC[C@H]2C1=O | 1.2
CC(C)C[C@H]1NC(=O)[C@@H](C)N(C)C(=O)[C@H](Cc2ccccc2)NC(=O)[C@@H](CC(C)C)NC(=O)[C@@H]2CCCN2C(=O)C[C@H](Cc2ccccc2)NC1=O | 5.5
CC(C)C[C@@H]1C(=O)N[C@@H](Cc2ccccc2)C(=O)N2CCC[C@@H]2C(=O)N[C@@H](C)C(=O)N(C)[C@@H](CC(C)C)C(=O)N(C)[C@@H](CC(C)C)C(=O)N2CCC[C@H]2C(=O)N1C | 0.87
CCCN1CC(=O)N[C@H](CC(C)C)C(=O)N(Cc2ccccc2)CC(=O)N2CCC[C@H]2C(=O)N(C)[C@@H](CC(C)C)C(=O)N[C@@H](Cc2ccccc2)C1=O | 13
CC(C)C[C@@H]1NC(=O)[C@H](C)N(C)C(=O)[C@H](Cc2ccccc2)NC(=O)CN(Cc2ccccc2)C(=O)[C@H]2CCCN2C(=O)[C@H](CC(C)C)N(C)C1=O | 4.9
CC(C)C[C@@H]1NC(=O)[C@@H]2CCCN2C(=O)[C@@H](CC(C)C)NC(=O)[C@H](CC(C)C)N(C)C(=O)[C@@H](C)N(C)C(=O)[C@@H]2CCCN2C(=O)[C@H](Cc2ccccc2)NC1=O | 0.48
CC(C)C[C@@H]1NC(=O)[C@@H](C)N(C)C(=O)[C@H](Cc2ccccc2)NC(=O)CN(Cc2ccccc2)C(=O)[C@@H]2CCCN2C(=O)CN(Cc2ccccc2)C1=O | 3.2
CCCN1CC(=O)N[C@H](CC(C)C)C(=O)N(Cc2ccccc2)CC(=O)N2CCC[C@H]2C(=O)N(C)[C@H](CC(C)C)C(=O)N[C@@H](Cc2ccccc2)C1=O | 5.8
CC(C)C[C@@H]1C(=O)N(C)[C@H](CC(C)C)C(=O)N2CCC[C@@H]2C(=O)N(C)[C@H](CC(C)C)C(=O)N[C@@H](Cc2ccccc2)C(=O)N[C@@H](Cc2ccccc2)CC(=O)N1C | 4.8
CC(C)C[C@@H]1NC(=O)[C@@H](C)N(C)C(=O)[C@H](Cc2ccccc2)NC(=O)[C@H](CC(C)C)N(C)C(=O)[C@@H]2CCCN2C(=O)[C@@H](CC(C)C)NC1=O | 9.5
CCCN1CC(=O)N[C@H](CC(C)C)C(=O)N(C)[C@H](CC(C)C)C(=O)N2CCC[C@@H]2C(=O)N(Cc2ccccc2)CC(=O)N[C@@H](Cc2ccccc2)C(=O)N2CCC[C@@H]2C1=O | 6.5
CCCN1CC(=O)N(C)[C@H](CC(C)C)C(=O)N[C@H](CC(C)C)C(=O)N2CCC[C@@H]2C(=O)N[C@H](CC(C)C)C(=O)N[C@@H](Cc2ccccc2)C1=O | 1.7
CCCN1CC(=O)N[C@H](CC(C)C)C(=O)N(C)[C@H](CC(C)C)C(=O)N2CCC[C@@H]2C(=O)N[C@H](CC(C)C)C(=O)N[C@@H](Cc2ccccc2)C(=O)N2CCC[C@H]2C1=O | 4.9
CC(C)C[C@@H]1NC(=O)C[C@H](Cc2ccccc2)NC(=O)[C@H](Cc2ccccc2)NC(=O)[C@H](CC(C)C)NC(=O)[C@@H]2CCCN2C(=O)C[C@H](Cc2ccccc2)NC1=O | 1.2
CC(C)C[C@@H]1C(=O)N[C@@H](Cc2ccccc2)C(=O)N2CCC[C@@H]2C(=O)N[C@@H](C)C(=O)N[C@H](CC(C)C)C(=O)N(Cc2ccccc2)CC(=O)N2CCC[C@H]2C(=O)N1C | 5.6
CC(C)C[C@@H]1NC(=O)[C@@H](C)N(C)C(=O)[C@H](Cc2ccccc2)NC(=O)[C@@H](CC(C)C)NC(=O)[C@H]2CCCN2C(=O)[C@@H](CC(C)C)NC1=O | 0.74
CC(C)C[C@@H]1C(=O)N[C@@H](Cc2ccccc2)C(=O)N2CCC[C@H]2C(=O)N[C@@H](Cc2ccccc2)CC(=O)N(Cc2ccccc2)CC(=O)N[C@H](CC(C)C)C(=O)N2CCC[C@H]2C(=O)N1C | 1.5
CC(C)C[C@@H]1NC(=O)[C@@H](C)N(C)C(=O)[C@H]2CCCN2C(=O)[C@H](Cc2ccccc2)NC(=O)[C@H](CC(C)C)N(C)C(=O)[C@H]2CCCN2C(=O)[C@H](CC(C)C)NC1=O | 1.1
CC(C)C[C@@H]1NC(=O)[C@@H]2CCCN2C(=O)CN(Cc2ccccc2)C(=O)[C@H](CC(C)C)N(C)C(=O)[C@@H](C)NC(=O)[C@H]2CCCN2C(=O)[C@H](Cc2ccccc2)NC1=O | 0.59

3 of these entries, quoted again:

compound | PAMPA (10^-6 cm/s)
CC(C)C[C@@H]1NC(=O)C[C@H](Cc2ccccc2)NC(=O)[C@H](Cc2ccccc2)NC(=O)[C@H](CC(C)C)NC(=O)[C@@H]2CCCN2C(=O)C[C@H](Cc2ccccc2)NC1=O | 1.2
CC(C)C[C@@H]1NC(=O)[C@@H](C)N(C)C(=O)[C@H](Cc2ccccc2)NC(=O)[C@H](CC(C)C)N(C)C(=O)[C@@H]2CCCN2C(=O)[C@@H](CC(C)C)NC1=O | 9.5
CC(C)C[C@@H]1NC(=O)[C@@H]2CCCN2C(=O)[C@@H](CC(C)C)NC(=O)[C@H](CC(C)C)N(C)C(=O)[C@@H](C)N(C)C(=O)[C@@H]2CCCN2C(=O)[C@H](Cc2ccccc2)NC1=O | 0.48

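Lipid, pH, incubation time, direction and concentration are not recorded in the data file. Other peptides of the study may be missing here. Entries at the database's floor value (log10 P of -10) are not listed.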